Reference: patent US6846489B1, “Vaccines containing a saponin and a sterol” (priority 1995, dated 2005)

Assay: Solubility in water
Assay type: physicochemical
Method: In the presence of phospholipids the cholesterol resides within the phospholipid bilayer which can form a stable suspension of vesicles called liposomes. To avoid the requirement to add phospholipids a soluble derivative was tried. Polyoxyethanyl-cholesterol sebacate is soluble in water at 60 mg/ml however even at a 2000 fold excess (w/w) over QS21 no reduction in the lytic activity of QS21 was detected.

Polyoxyethanyl-cholesterol sebacate
soluble in water: 60 mg/mL
